{"source": "PubChem BioAssay AID1479", "about": "(National Center for Advancing Translational Sciences (NCATS), 2009)", "note": "Only a part is listed here, and it is no random draw. Some tests of the compounds listed are not included; inactive here does not mean inactive elsewhere. Calls of active or inactive are those of the source. The call rests on the fitted dose curve; in most records, active means well fitted curve in either direction with a large enough effect; inconclusive means small, poorly fitted or top-dose-only effect; inactive means flat fitted curve, though single readings scatter.", "data": [{"test": "Total Fluorescence Counterscreen for Inhibitors of the Interaction of Thyroid Hormone Receptor and Steroid Receptor Coregulator 2; further: on the % scale 0 is the no-effect control and ±100 the full control effect", "settings": "TRb/SRC2 Texas Red total fluorescence interference; at 106 µM (top of the series)", "values": [{"compound": "CN(C)C1CCCC1OC(=O)C(O)(c1ccccc1)c1ccccc1", "note": "(centres undefined)", "fluorescence change, negative = quenching": "inactive: 0.11%"}, {"compound": "Cc1ccccc1C(=O)NCC1(N2CCCCC2)CCCCC1", "fluorescence change, negative = quenching": "inactive: -0.863%"}, {"compound": "CN(C)C1(CNC(=O)c2ccccc2[N+](=O)[O-])CCCCC1", "fluorescence change, negative = quenching": "inactive: 3.56%"}, {"compound": "CCN1CCCC(OC(=O)C2(O)c3ccccc3C=Cc3ccccc32)C1", "note": "(centres undefined)", "fluorescence change, negative = quenching": "inactive: 0.325%"}, {"compound": "CCOc1cccc(C(=O)NCC2(N(C)C)CCCCC2)c1", "fluorescence change, negative = quenching": "inactive: -1.85%"}, {"compound": "O=C(NCC1(N2CCCCC2)CCCCC1)c1cc([N+](=O)[O-])ccc1Cl", "fluorescence change, negative = quenching": "inactive: -3.26%"}, {"compound": "CN(C)C1(CNC(=O)c2ccccc2F)CCCCC1", "fluorescence change, negative = quenching": "inactive: -0.258%"}, {"compound": "CN(C)C1(CNC(=O)c2cccc(Cl)c2)CCCCC1", "fluorescence change, negative = quenching": "inactive: -0.573%"}, {"compound": "CCN(CC)CC(C)C(C)OC(=O)C(O)(c1ccccc1)c1ccccc1", "note": "(centres undefined)", "fluorescence change, negative = quenching": "inactive: -0.938%"}, {"compound": "CC(C)COc1ccc(C(=O)NCC2(N(C)C)CCCCC2)cc1", "fluorescence change, negative = quenching": "inactive: -1.03%"}, {"compound": "O=C(OC1CN2CCC1CC2)C(CO)(c1ccccc1)c1ccccc1", "note": "(centres undefined)", "fluorescence change, negative = quenching": "inactive: 1.78%"}, {"compound": "COc1cccc(C(=O)NCC2(N3CCOCC3)CCCCC2)c1", "fluorescence change, negative = quenching": "inactive: -0.64%"}, {"compound": "CN(C)c1cccc(C(=O)NCC2(N(C)C)CCCCC2)c1", "fluorescence change, negative = quenching": "inactive: 0.586%"}, {"compound": "CC(C)Oc1ccc(C(=O)NCC2(N(C)C)CCCCC2)cc1", "fluorescence change, negative = quenching": "inactive: -20.8%"}, {"compound": "COc1ccc(Br)c(C(=O)NCC2(N3CCCCC3)CCCCC2)c1", "fluorescence change, negative = quenching": "inactive: -5.82%"}, {"compound": "Cc1cccc(C(=O)NCC2(N(C)C)CCCCC2)c1", "fluorescence change, negative = quenching": "inactive: -14.2%"}, {"compound": "COc1cc(C(=O)NCC2(N(C)C)CCCCC2)cc(OC)c1OC", "fluorescence change, negative = quenching": "inactive: 1.51%"}, {"compound": "COc1ccc(C(=O)NCC2(N(C)C)CCCCC2)cc1Cl", "fluorescence change, negative = quenching": "inactive: -33.8%"}, {"compound": "COc1cccc(C(=O)NCC2(N3CCCCC3)CCCCC2)c1", "fluorescence change, negative = quenching": "inactive: -3.16%"}]}]}
